# In patent publication US10117912B2 (priority 2013, dated 2018):
# The chains behind the UniProt entries cited, without tags or fusion partners. Where a name states a change or a piece, a line headed by the entry shows the natural chain unless it says otherwise. Residues count along the entry.
# UniProt P06276, 29-602 limits assumed: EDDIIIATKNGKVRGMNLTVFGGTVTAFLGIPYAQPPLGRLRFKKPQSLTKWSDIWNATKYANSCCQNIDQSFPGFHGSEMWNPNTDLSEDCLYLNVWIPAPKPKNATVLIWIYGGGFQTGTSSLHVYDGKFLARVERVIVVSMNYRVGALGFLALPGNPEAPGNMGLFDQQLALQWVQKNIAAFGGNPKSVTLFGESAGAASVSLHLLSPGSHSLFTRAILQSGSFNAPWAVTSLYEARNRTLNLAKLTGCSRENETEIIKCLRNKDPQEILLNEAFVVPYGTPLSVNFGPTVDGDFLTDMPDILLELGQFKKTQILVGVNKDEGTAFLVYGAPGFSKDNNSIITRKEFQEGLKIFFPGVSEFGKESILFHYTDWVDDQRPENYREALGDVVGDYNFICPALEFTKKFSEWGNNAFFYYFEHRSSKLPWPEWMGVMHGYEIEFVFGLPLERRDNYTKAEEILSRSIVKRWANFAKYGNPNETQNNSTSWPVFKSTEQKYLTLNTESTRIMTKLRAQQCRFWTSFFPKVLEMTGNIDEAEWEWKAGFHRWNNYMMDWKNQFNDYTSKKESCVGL
# UniProt P15144: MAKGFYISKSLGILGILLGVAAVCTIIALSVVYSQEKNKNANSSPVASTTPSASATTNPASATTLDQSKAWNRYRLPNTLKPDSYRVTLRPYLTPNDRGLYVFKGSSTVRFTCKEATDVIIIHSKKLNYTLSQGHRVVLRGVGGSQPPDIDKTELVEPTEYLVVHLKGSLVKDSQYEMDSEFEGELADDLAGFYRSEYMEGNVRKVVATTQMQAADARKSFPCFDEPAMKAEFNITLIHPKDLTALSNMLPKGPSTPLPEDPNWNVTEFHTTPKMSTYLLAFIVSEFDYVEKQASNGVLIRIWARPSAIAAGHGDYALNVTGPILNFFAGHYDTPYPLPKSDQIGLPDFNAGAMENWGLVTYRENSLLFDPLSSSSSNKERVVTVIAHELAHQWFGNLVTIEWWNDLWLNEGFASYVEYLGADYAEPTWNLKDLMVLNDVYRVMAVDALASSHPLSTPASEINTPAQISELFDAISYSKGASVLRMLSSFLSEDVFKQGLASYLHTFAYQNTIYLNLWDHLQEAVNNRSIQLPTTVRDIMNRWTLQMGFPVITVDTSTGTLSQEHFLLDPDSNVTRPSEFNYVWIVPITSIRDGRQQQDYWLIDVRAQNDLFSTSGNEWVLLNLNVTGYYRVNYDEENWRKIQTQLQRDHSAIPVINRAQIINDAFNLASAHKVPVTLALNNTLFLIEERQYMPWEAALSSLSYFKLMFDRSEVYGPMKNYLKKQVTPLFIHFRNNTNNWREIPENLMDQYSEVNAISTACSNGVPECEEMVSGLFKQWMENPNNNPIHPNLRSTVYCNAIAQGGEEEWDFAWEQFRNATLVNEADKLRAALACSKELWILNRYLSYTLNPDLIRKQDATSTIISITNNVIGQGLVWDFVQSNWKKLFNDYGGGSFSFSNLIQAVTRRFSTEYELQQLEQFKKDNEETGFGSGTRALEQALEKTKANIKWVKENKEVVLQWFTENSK
# UniProt Q9NY33: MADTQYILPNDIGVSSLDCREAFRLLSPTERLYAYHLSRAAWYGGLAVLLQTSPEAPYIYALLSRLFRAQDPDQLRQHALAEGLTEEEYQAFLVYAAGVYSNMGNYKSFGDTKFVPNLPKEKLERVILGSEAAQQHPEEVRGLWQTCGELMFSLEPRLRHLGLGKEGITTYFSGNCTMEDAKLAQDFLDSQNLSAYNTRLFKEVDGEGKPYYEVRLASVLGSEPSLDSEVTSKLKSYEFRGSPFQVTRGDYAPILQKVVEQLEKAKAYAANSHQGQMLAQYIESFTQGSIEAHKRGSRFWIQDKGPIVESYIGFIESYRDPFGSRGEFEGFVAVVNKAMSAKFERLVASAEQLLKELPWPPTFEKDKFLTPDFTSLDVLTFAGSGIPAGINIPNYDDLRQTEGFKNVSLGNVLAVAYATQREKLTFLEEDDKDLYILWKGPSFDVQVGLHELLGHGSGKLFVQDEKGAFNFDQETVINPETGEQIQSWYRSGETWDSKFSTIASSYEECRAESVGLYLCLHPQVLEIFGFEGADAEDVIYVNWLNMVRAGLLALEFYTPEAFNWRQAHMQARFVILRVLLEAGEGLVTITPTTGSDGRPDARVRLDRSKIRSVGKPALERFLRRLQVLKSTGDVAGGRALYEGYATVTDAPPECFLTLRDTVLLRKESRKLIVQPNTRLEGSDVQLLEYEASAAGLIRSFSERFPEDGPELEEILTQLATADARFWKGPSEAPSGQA
# Tests used:
# [1] = system: Aspergillus oryzae protease; test: Avizafone converting enzyme screening and kinetics, Aspergillus oryzae protease
# [2] = target: butyrylcholinesterase (Homo sapiens, UniProt P06276); test: Avizafone converting enzyme screening, butyrylcholinesterase; conditions: avizafone with enzyme 0.25-2 U/mL, 10 min, 32° C., pH 7.4
# [3] = system: MDCKII-wt monolayer
# [4] = system: MDCKII-wt monolayers
# [5] = target: aminopeptidase N (Homo sapiens, UniProt P15144); test: Avizafone converting enzyme screening, aminopeptidase N; conditions: avizafone with enzyme 0.25-2 U/mL, 10 min, 32° C., pH 7.4
# [6] = system: Proteinase from Aspergillus melleus (protease EC number 232-642-4); test: Conversion of avizafone with Aspergillus melleus protease (UV absorbance 240 nm); conditions: 129.9 uM avizafone, enzyme 0.25-2 U/mL, 32 degree C., 30 min
# [7] = target: dipeptidyl peptidase III (Homo sapiens, UniProt Q9NY33); test: Avizafone converting enzyme screening, dipeptidyl peptidase III; conditions: avizafone with enzyme 0.25-2 U/mL, 10 min, 32° C., pH 7.4
SMILES,"Km ([1]; read-out: Km (Michaelis-Menten), 0.25 U/ml protease, avizafone 69-3601 μM, conversion rate at 5 min, pH 7.4, 32° C., ± s.e.m) [µM]",change in absorbance at 240 nm (prodrug conversion) [2],"amount of prodrug accumulated in the basal side ([3]; avizafone at 116 μM, S=0.9, no enzyme, after 2 h)","conversion of prodrug to parent drug on the apical side ([3]; avizafone at S=5.6, cenz=4 U/mL protease, after 2 h) [%]","prodrug in apical solutions ([3]; avizafone without enzyme, after 2 h) [%]","prodrug permeated into the basal side ([3]; avizafone without enzyme, over 2 h) [%]",prodrug concentration at which avizafone flux saturated ([3]; without enzyme) [µM],"effect on TEER (monolayer integrity) ([4]; 2 h treatment, pH 7.4, 32° C., enzyme 4 U/mL)","TEER value ([4]; prodrug-enzyme mixtures prepared at S=10.2, protease 4 U/mL, 2 h)",change in absorbance at 240 nm (prodrug conversion) [5],"Vmax (Michaelis-Menten) ([1]; 0.25 U/ml protease, avizafone 69-3601 μM, conversion rate at 5 min, pH 7.4, 32° C.) [µM/s]","change in absorbance at 240 nm (prodrug conversion) ([1]; avizafone with enzyme 0.25-2 U/mL, after 10 min, 32° C., pH 7.4)",kcat ([1]; cenz=108 μM (4 U/mL)) [s⁻¹],conversion of avizafone (UV absorbance at 240 nm) [6],change in absorbance at 240 nm (prodrug conversion) [7]
CN(C(=O)CNC(=O)[C@@H](N)CCCCN)c1ccc(Cl)cc1C(=O)c1ccccc1,1500,–,–,–,–,–,–,–,–,–,–,–,–,–,–
CN(C(=O)CNC(=O)[C@@H](N)CCCCN)c1ccc(Cl)cc1C(=O)c1ccccc1.Cl.Cl,–,no change in absorbance,negligible amount,80,80,≤ 10,≥ 1130,unaffected,> 60 Ω/cm^2,no change in absorbance,1369 ± 94,increase in absorbance,12.7,conversion of Avizafone in a dose dependent manner,no change in absorbance
